Yeast mating assay 1: variants of the scFv Ab-14

Data: MIT Lincoln Laboratory AlphaSeq set, Engelhart et al. 2022, doi:10.1038/s41597-022-01779-4, as distributed in FLAb.

Antigen: PDVDLGDISGINAS, a 14-residue peptide of the SARS-CoV-2 spike HR2 region.

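The parent was found by panning a naive human phage display library on the peptide. The library (AAYL49) carries one to three amino acid substitutions per variant, with no insertions or deletions. AlphaSeq pools MATa yeast showing the antibodies with MATalpha yeast showing the peptide. Pairs that bind mate more often; barcode pairs of the diploids are counted by sequencing. Each replicate has its own calibration line, from reference interactions of the BCL2 family. Each pool was mated in three replicate cultures.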

Each scFv is VH, the linker GGGGSGGGGSGGGGS, VL, as in the parent Ab-14, and differs from it in the CDRs of the heavy chain only.
VH: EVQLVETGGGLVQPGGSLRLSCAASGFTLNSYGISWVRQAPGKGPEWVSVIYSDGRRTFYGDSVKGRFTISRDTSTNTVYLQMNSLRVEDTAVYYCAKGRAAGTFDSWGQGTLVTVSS
VL: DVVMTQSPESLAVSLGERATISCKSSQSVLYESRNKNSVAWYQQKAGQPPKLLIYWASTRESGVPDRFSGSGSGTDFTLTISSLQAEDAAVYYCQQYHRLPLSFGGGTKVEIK

Positions count from residue 1 of the parent VH; G33E puts E in place of G. The read-out is the apparent dissociation constant on a log10 scale (nM): the lower, the stronger. "ND" means that the variant was in the library but no mating with the target was seen in that replicate; the authors take this as a sign of poor binding, and no number exists. Nonspecific signal, from three strains lacking the peptide, appeared in 15% of pairings of library AAYL49, centred on 4.06 (5% of these signals below 2.83); values are not corrected for it. The control count says in how many pairings with the empty strains this scFv gave a signal, with their mean in brackets.

changes	replicates, log10 nM	empty controls
G33E/Y52H/D106L	3.92 / 3.01 / ND	3 of 9 (4.36)
I34G/S35K/G61Y	ND / ND / ND	0 of 9
G55D/G61N/R100A	4.39 / 5.10 / ND	1 of 9 (4.07)
V50L/R56D/S107F	ND / ND / ND	0 of 9
G26A/S63V	3.68 / 3.43 / 3.04	1 of 9 (2.63)
F59Q/A101Q/F105A	ND / ND / ND	0 of 9
Y32W/G33D/K65L	ND / ND / ND	1 of 9 (2.36)
T28Q/T58E/A102L	ND / ND / ND	0 of 9
I34R/V64R	ND / ND / ND	0 of 9
I51F/D62Y	ND / ND / ND	0 of 9
R57T/F105P/D106A	2.19 / 2.22 / 2.02	1 of 9 (3.92)
S31G/S63R/K65C	ND / ND / ND	0 of 9
V50A/F105A	ND / 3.83 / ND	0 of 9
S53G/D54A/F105Q	ND / ND / 3.61	0 of 9
Y60F/G103E/F105K	3.12 / 3.23 / ND	4 of 9 (3.70)
I51C/R57K/G103N	ND / ND / ND	1 of 9 (3.28)
Y32E/Y52G/D106P	4.90 / 5.71 / ND	5 of 9 (4.33)
S31D/T58L	0.36 / 0.46 / 0.40	1 of 9 (4.90)
I51L/R57V/T58C	ND / 5.27 / ND	5 of 9 (4.64)
Y32K/D62N/K65H	ND / ND / ND	1 of 9 (3.58)
R57S/A102K	ND / ND / ND	0 of 9
S63R/D106H	1.91 / 1.75 / 1.89	1 of 9 (2.82)
I34V/T58P/G99C	ND / ND / ND	1 of 9 (3.88)
G26I/G55T/A102C	ND / ND / ND	2 of 9 (4.84)
Y60R/D62W/R100D	ND / 3.69 / ND	0 of 9
D54H/D62G/R100I	ND / ND / ND	3 of 9 (4.28)
Y32P/G33S/S53F	ND / ND / ND	0 of 9
S35T/V64D/T104A	ND / ND / ND	2 of 9 (3.97)
T28I/D54M/T58I	ND / 4.60 / ND	0 of 9
G26L/L29A/I51C	ND / ND / ND	2 of 9 (3.51)
L29T/G99C	ND / ND / ND	0 of 9
V50Y/R100W/T104S	3.74 / 3.70 / ND	2 of 9 (3.88)
Y52R/T58M/A101R	ND / ND / ND	0 of 9
I34L/K65Q/S107G	ND / ND / ND	2 of 9 (4.53)
S31N/R56E/T104H	ND / ND / ND	1 of 9 (2.92)
T28A/L29N/D62Q	ND / ND / ND	2 of 9 (3.49)
R57A/T58G/G99D	ND / 3.89 / ND	4 of 9 (3.93)
F27M/I34W/F105E	ND / 3.94 / ND	0 of 9
D106N	1.78 / 2.33 / 1.94	5 of 9 (4.29)
G33D/I51G	ND / ND / ND	0 of 9
V50D/F59C/K65V	ND / ND / ND	0 of 9
N30T/Y52K/D106Q	ND / ND / ND	1 of 9 (3.90)
V50M/V64Y/A102Q	ND / ND / ND	1 of 9 (2.93)
I34S/S35G/D62Y	ND / 4.56 / ND	3 of 9 (5.38)

The closing 2 entries, repeated:

changes,"replicates, log10 nM",empty controls
V50M/V64Y/A102Q,ND / ND / ND,1 of 9 (2.93)
I34S/S35G/D62Y,ND / 4.56 / ND,3 of 9 (5.38)